For this experiment, the target named is Mdm2 (Homo sapiens, UniProt Q00987). Kind of experiment: fluorescence polarisation assay, binding constants. To be noted: derived from Ki and molecular weight.

Amino acid sequences for entries named in this document (tags omitted).
UniProt Q00987, whole entry: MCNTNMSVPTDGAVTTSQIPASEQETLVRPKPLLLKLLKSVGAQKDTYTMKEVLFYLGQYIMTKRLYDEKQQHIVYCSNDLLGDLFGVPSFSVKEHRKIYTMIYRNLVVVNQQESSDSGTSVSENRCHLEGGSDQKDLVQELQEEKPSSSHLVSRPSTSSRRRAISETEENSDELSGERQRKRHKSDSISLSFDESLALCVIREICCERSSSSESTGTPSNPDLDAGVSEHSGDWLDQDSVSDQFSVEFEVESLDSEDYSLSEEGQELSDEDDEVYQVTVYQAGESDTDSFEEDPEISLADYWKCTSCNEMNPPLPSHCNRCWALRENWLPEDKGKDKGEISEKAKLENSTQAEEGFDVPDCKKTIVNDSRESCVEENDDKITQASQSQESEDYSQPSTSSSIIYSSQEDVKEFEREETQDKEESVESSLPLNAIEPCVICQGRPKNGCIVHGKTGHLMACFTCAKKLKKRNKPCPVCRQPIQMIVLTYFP

Here are results for one compound from publication PMC3772510 (ChemMedChem, 2011).

For `COc1ccc(C2=N[C@@H](c3ccc(Cl)cc3)[C@@H](c3ccc(Cl)cc3)N2C(=O)N2CCNC(=O)C2)c(OC(C)C)c1` [Nutlin-3a, nutlin-3a], the “binding efficiency index (BEI)” value came out at 12.7.
